Test [1] addresses T1, GLP-1R (Homo sapiens, UniProt P43220). Briefly: cell-based.
Test [2] has as its target T1, GLP-1R. Particulars: GLP-1R expressing CHO-K1 cells.
Test [3] concerns the target T1, GLP-1R. Briefly: cell-based. The source holds these as a separate data set.

Amino acid sequences for entries named in this document (tags omitted). Residues count along the entry.
UniProt P43220, 24-463: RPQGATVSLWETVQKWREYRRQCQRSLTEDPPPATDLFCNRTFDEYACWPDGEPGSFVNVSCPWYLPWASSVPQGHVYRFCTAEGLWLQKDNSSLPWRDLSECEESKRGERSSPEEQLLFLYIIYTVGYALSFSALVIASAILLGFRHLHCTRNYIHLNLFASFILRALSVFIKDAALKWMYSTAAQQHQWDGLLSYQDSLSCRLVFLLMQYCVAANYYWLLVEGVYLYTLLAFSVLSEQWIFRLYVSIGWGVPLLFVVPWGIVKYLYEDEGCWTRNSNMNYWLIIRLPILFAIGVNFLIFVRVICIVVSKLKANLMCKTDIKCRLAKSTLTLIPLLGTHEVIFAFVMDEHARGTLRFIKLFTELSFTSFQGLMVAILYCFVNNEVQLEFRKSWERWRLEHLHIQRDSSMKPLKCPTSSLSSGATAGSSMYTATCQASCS

Structures are written as SMILES.

Take `O=C(Cn1c(COc2ccccc2)nc2ccccc21)Nc1ccc(Cc2nnn[nH]2)cc1` [C10]: the IC50 (in general, the midpoint of a concentration-inhibition curve) on GLP-1R [1] was 45700 nM. Moreover, the “Modulation of GLP-1-elicited cAMP accumulation / GLP-1 potency (in words)” value at GLP-1R [2] was “positively modulated GLP-1 potency”. On GLP-1R [3], the EC50 (as a rule, the concentration at which the effect is half-maximal) was 501000 nM.

At GLP-1R [1], `CCOc1ccc(S(=O)(=O)Nc2ccccc2C(=O)OCC(=O)Nc2cc(C)on2)cc1` [C13] gave an IC50 of 1480 nM. The “Modulation of GLP-1-elicited cAMP accumulation / GLP-1 potency (in words)” value at GLP-1R [2] was “positively modulated GLP-1 potency”. The compound further gave a half-maximal effective concentration (EC50) on GLP-1R [3] of 15800 nM.

With `COc1ccccc1NS(=O)(=O)c1cc(NC(=O)c2ccc(=O)n(C)n2)ccc1N1CCCC1` [C22], the IC50 against GLP-1R [1] is 631 nM. Also, the “Modulation of GLP-1-elicited cAMP accumulation / GLP-1 potency (in words)” value at GLP-1R [2] is given as “positively modulated GLP-1 potency”. For the same compound, at GLP-1R [3], the EC50 is 501 nM.

At GLP-1R [1], `COc1ccc(NC(=O)c2n[nH]c3ccc([N+](=O)[O-])cc23)cc1NS(=O)(=O)c1ccc(F)cc1` [C26] had a 50% inhibitory concentration (IC50) of 1410 nM. Besides, the “Modulation of GLP-1-elicited cAMP accumulation / GLP-1 potency (in words)” value on GLP-1R [2] is listed as “positively modulated GLP-1 potency”. Also, the response on GLP-1R [3] was half-maximal at 3980 nM (EC50).

Consider `O=C(CSc1nnc[nH]1)Nc1sc2c(c1C(=O)NCc1ccccc1)CCCC2` [C31], for which it took 1290 nM to reach half-maximal inhibition against GLP-1R [1] (IC50). Moreover, the “Modulation of GLP-1-elicited cAMP accumulation / GLP-1 potency (in words)” value on GLP-1R [2] was “positively modulated GLP-1 potency”. The compound also had an EC50 on GLP-1R [3] of 10000 nM.

The values are drawn from PMC8301998, “Discovery of Novel Allosteric Modulators Targeting an Extra-Helical Binding Site of GLP-1R Using Structure- and Ligand-Based Virtual Screening” (Biomolecules, 2021).
